Biological target: T1, cloned dopamine human D2Long receptor (Homo sapiens, UniProt P14416)
T1 construct: purchased Research Biochemicals International (Natick, Mass.); host or cells: Sf9 cells or CHO cells
Experiment: Competitive binding at cloned dopamine D2 receptor ([3H]raclopride)
Conditions: D2short or D2 long; read-out: Kd of radioligand at cloned dopamine D2 receptors

By UniProt entry, the sequences of proteins in these tests, tags left out.
UniProt P14416, whole entry: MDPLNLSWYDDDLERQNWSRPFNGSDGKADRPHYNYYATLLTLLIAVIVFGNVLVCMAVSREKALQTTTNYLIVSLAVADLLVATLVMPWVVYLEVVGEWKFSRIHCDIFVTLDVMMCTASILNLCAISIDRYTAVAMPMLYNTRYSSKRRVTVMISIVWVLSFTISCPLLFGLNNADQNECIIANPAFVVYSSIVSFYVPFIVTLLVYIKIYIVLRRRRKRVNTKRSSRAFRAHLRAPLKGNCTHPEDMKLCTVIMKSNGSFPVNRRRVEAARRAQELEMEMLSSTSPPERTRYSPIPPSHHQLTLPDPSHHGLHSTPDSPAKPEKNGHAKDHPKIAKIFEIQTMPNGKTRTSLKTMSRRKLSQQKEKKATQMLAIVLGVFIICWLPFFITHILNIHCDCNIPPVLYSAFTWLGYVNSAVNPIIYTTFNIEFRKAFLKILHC

Question: For CCN1CCC[C@H]1CNC(=O)c1c(O)c(Cl)cc(Cl)c1OC (racemic) [[^3H]raclopride], which Kd is on record?
Answer: Its Kd is 1.9 nM.

From patent publication US20100004289A1, “SUBSTITUTED BUTYROPHENONE DERIVATIVES” (priority 2005, published 2010)
